From article PMC8158687, “Xanthones Active against Multidrug Resistance and Virulence Mechanisms of Bacteria” (Antibiotics, 2021) come the findings set out here.

The subject of the experiment is S. aureus 272123. Put plainly: Efflux pump inhibition assay (real-time ethidium bromide accumulation). The experiment is classed as cell-based, Staphylococcus aureus. Conditions: compound 50 µM, EB 1 µg/mL, minute 60. On the procedure:
Compounds 1–20 were assessed for their capability of modulating ethidium bromide (EB) accumulation on two resistant strains. […] However, norA is a core gene of the S. aureus as a species, which means that the NorA pump occurs in all S. aureus strains.
Salmonella enterica serovar Typhimurium SE03, was used as a Gram-negative bacterium. This strain has a deletion of the acrA gene, which was predicted with the least affinity for the compounds. The aim of these studies was to perform a first screening of these compounds and their ability to modulate the efflux of EB. […] The relative fluorescence index (RFI) was calculated based on the means of relative fluorescence units, depicted in Table 2.
Compounds 1–20 were evaluated for their ability to inhibit efflux pumps in SE03 and S. aureus 272123 strains, through the real-time fluorimetry, monitoring the intracellular accumulation of EB, an efflux pump substrate. This was determined by the automated method using a CLARIOstar Plus plate reader (BMG Labtech, Ortenberg, Germany). Reserpine and CCCP were applied at 25 µM as positive controls, and the solvent DMSO was applied at 1% v/v. […] The plates were placed into the CLARIOstar plate reader, and the fluorescence was monitored at excitation and emission wavelengths of 530 nm and 600 nm every minute for one hour on a real-time basis. […]

For the compound `COc1cccc2oc3ccccc3c(=O)c12` [Compound 11], the “RFI ± SD (relative fluorescence index)” value is −0.10 ± 0.06 ^1.
Under `O=c1c2ccccc2oc2cc(O)c(O)cc12` [Compound 2] stands −0.69 ± 0.02 ^2.
